Results reported in PubChem BioAssay AID1321 (The Scripps Research Institute Molecular Screening Center, 2008).
Only a part is listed here, and it is no random draw. Active and inactive are the calls of the source.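 The calls were made as follows: active = activation above the mean of all tested compounds plus 3 SD, set per screening run (cut at about 8.8% in these data); inactive = the rest.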

By UniProt entry, the sequences of proteins in these tests, tags left out.
UniProt P30291, whole entry K328M: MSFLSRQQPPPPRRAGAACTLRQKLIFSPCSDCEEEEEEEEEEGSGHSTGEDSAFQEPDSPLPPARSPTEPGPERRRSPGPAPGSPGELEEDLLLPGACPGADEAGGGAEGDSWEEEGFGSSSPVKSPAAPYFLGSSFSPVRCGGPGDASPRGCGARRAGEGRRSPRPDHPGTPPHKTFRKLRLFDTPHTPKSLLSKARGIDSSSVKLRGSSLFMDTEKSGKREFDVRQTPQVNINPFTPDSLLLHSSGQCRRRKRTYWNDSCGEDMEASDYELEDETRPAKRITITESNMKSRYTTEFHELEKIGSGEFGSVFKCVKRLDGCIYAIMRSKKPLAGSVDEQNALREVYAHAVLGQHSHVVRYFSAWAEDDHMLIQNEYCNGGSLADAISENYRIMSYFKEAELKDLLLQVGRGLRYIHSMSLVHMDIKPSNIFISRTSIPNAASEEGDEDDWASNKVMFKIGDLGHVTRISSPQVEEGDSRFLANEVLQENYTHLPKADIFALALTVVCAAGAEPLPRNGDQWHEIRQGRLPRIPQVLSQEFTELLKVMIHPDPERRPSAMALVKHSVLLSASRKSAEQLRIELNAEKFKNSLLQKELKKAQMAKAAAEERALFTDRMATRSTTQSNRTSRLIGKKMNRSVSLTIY

What follows are compounds tested against Wee1-like protein kinase (Homo sapiens) (UniProt P30291) (assay: compounds stabilizing Wee1-luciferase fusion – cell-based, HeLa, Wee1K328M-luciferase, luminescence, primary screen (AID 1321;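 also: cells exposed to compound for 20 h before luminescence read; 0% = DMSO alone and 100% = MG132 at 30 µM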)). Settings: HeLa Luc-Wee1K328M stability, at 5 µM, stronger effect = higher value, 100% = proteasome inhibitor MG132 effect.
For `CCOc1ccc(C)cc1CN(CCCl)CCCl`, the reporter increase was inactive: -2.96%. For `COc1ccc(NC2CCN(CCc3ccccc3)CC2)c(OC)c1`, the reporter increase was inactive: -1.93%. For `Cc1ccc(OCC(C)C)c(CN(CCCl)CCCl)c1`, the reporter increase was inactive: -1.11%. `COc1ccc(C(=O)NCC2(N3CCCCC3)CCCCC2)c(OC)c1OC` was tested, and the reporter increase was inactive: 1.11%. With `O=C(NCC1(N2CCOCC2)CCCCC1)c1cc2ccccc2o1` the reporter increase was inactive: -1.05%. With `CCOC(=O)N1CCC(Nc2ccc(OC)cc2)CC1` the reporter increase was inactive: -2.86%. With `N#CC1(Nc2ccccc2)CCN(Cc2ccccc2)CC1` the reporter increase was inactive: 2.2%. `O=C(OC1CN2CCC1CC2)C1c2ccccc2Oc2ccccc21` (centres undefined) was tested, and the reporter increase was inactive: 2.78%. In the case of `CN(C)c1cccc(C(=O)NCC2(N3CCCCC3)CCCCC2)c1`, the reporter increase is reported as inactive: -3.94%. For `COc1ccc(CN(CCCl)CCCl)cc1Cl`, the reporter increase was inactive: 0.51%. `CC(C)c1ccc(NC2CCN(C(=O)OC(C)(C)C)CC2)cc1` was tested, and the reporter increase was inactive: 0.34%. For `CN1CCC(Nc2cccc(F)c2)CC1`, the reporter increase was inactive: 2.09%. `O=C(NCC1(N2CCCCC2)CCCCC1)c1cccc([N+](=O)[O-])c1` was tested, and the reporter increase was inactive: -2.89%. In the case of `N#CC1(Nc2ccccc2)CCN(CCc2ccccc2)CC1`, the reporter increase is reported as inactive: -0.38%. In the case of `CN1CCN(CCOC(=O)C(O)(c2ccccc2)c2ccccc2)CC1`, the reporter increase is reported as inactive: -2.45%. `COc1ccc(NC2CCN(C(=O)OC(C)(C)C)CC2)cc1` was tested, and the reporter increase was inactive: -0.38%. For `O=C(NCC1(N2CCOCC2)CCCCC1)c1cc(=O)[nH]c2ccccc12`, the reporter increase was inactive: 0.22%. In the case of `N#Cc1ccc(C(=O)NCC2(N3CCCCC3)CCCCC2)cc1`, the reporter increase is reported as inactive: 1.28%. In the case of `c1ccc(CN2CCC(Nc3ccccc3)CC2)cc1`, the reporter increase is reported as inactive: -0.32%. For `COc1ccc(C(=O)NCC2(N3CCOCC3)CCCCC2)cc1OC`, the reporter increase was inactive: 0%. In the case of `N/C(=N\O)c1c(N)no[n+]1[O-]`, the reporter increase is reported as inactive: -0.29%. For `O=C(OC1CN2CCC1CC2)C1c2ccccc2C=Cc2ccccc21` (centres undefined), the reporter increase was inactive: -2.12%. For `CCOc1ncccc1C(=O)NCC1(N2CCOCC2)CCCCC1`, the reporter increase was inactive: -2.15%. For `CC(C)(C)OC(=O)N1CCC(Nc2ccccc2)CC1`, the reporter increase was inactive: 5.77%. For `CCC(CO)(C(=O)OC1CN2CCC1CC2)c1ccccc1` (centres undefined), the reporter increase was inactive: -0.69%. `COc1cc(OC)cc(C(=O)NCC2(N3CCOCC3)CCCCC2)c1` was tested, and the reporter increase was inactive: 0.33%. For `CCCOc1ccc(C)cc1CN(CCCl)CCCl`, the reporter increase was inactive: -2.62%. With `CCN1CCC(Nc2cccc(F)c2)CC1` the reporter increase was inactive: -1.64%. With `CN(C)c1ccc(C(=O)NCC2(N3CCCCC3)CCCCC2)cc1` the reporter increase was inactive: -2.01%.
